Data as given in PubChem BioAssay AID1347071 (National Center for Advancing Translational Sciences (NCATS), 2019).
The entries are a selection whose mix differs from that of the whole data set. Active and inactive are the calls of the source. Calls follow the shape of the dose curve; as a rule, active = well fitted activation curve with a large enough effect; inconclusive = small, poorly fitted or top-dose-only effect; inactive = no such curve, though single readings can be large or run the other way.

Experiment: qHTS for compounds that reverse cellular toxicity of Amyloid beta (A-beta) peptide in yeast: Primary Screen; also: nearly all actives have a fitted effect of over 55% in size
Details: yeast expressing A-beta42, growth rescue, OD600, 48 h, 0% DMSO, 100% iron-clioquinol control; at 46.1 µM (top of the series)
From the text: The A-beta peptide is produced by the processing of the amyloid precursor protein (APP) by two proteases, beta and gamma secretases. […] A-beta42 is regarded as the most amyloidogenic form due to its hydrophobicity; however, precisely how A-beta42 induces neurotoxicity is unclear. To understand further this biology and its potential therapeutic implications for human neurodegenerative disease, a quantitative high-throughput screen for compounds that reverse the cellular toxicity of the A-beta peptide was developed. A yeast based screen was used because it recapitulates the salient feature of protein mis-folding disorder accurately. This cell-based phenotypic screen provides a significant, unbiased advantage by letting the compounds and models inform us which proteins or pathways are most relevant. The ideal chemical candidates would therefore have activity in both our primary yeast and secondary neuronal toxicity assays, as well as in mouse models. […] For this luminescence assay, inhibition of A-beta rescues the toxic effect in the yeast cell, resulting in increase of signals and the desired phenotype of "Activator". […]
Two and a half microliter / well of yeast growth medium were dispensed in a 1536 assay plate. […] After 48 hr, the absorbance signal at 600 nm was obtained using the PerkinElmer ViewLux plate reader to assess yeast growth. […]

| Compound | growth rescue |
| --- | --- |
| CCC(=O)N(c1ccccc1)C1(COC)CCN(CCn2nnn(CC)c2=O)CC1 | inactive: -22.8% |
| CCC(=O)N(c1ccccc1)C1(COC)CCN(CCc2cccs2)CC1 | inactive: 1.75% |
